From article PMC12102759 (Protein Science : A Publication of the Protein Society, 2025)

By UniProt entry, the sequences of proteins in these tests, tags left out. Residues count along the entry.
UniProt Q9Y490, 309-401: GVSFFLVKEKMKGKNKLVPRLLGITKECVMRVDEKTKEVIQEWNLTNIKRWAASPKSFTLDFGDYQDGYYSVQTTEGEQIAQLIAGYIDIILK

Target: TLN1 PTB (Homo sapiens, UniProt Q9Y490)
Assay type: binding

| Sequence | DMS-derived PSSM value of the single-substitution variant |
| --- | --- |
| TDERSWVYSPLHYSAQ S5S | 0.106 |
| TDERSWVYSPLHYSAQ S5T (TDERTWVYSPLHYSAQ) | 0.2046 |
| TDERSWVYSPLHYSAQ S5V (TDERVWVYSPLHYSAQ) | 0.008572 |
| TDERSWVYSPLHYSAQ S5W (TDERWWVYSPLHYSAQ) | 0.01123 |
| TDERSWVYSPLHYSAQ S5Y (TDERYWVYSPLHYSAQ) | 0.008405 |
| TDERSWVYSPLHYSAQ S9A (TDERSWVYAPLHYSAQ) | 0.05967 |
| TDERSWVYSPLHYSAQ S9D (TDERSWVYDPLHYSAQ) | 0.006284 |
| TDERSWVYSPLHYSAQ S9E (TDERSWVYEPLHYSAQ) | 0.005796 |
| TDERSWVYSPLHYSAQ S9F (TDERSWVYFPLHYSAQ) | 0.002289 |
| TDERSWVYSPLHYSAQ S9G (TDERSWVYGPLHYSAQ) | 0.0005945 |
| TDERSWVYSPLHYSAQ S9H (TDERSWVYHPLHYSAQ) | 0.01252 |
| TDERSWVYSPLHYSAQ S9I (TDERSWVYIPLHYSAQ) | 0.001144 |
| TDERSWVYSPLHYSAQ S9K (TDERSWVYKPLHYSAQ) | 0 |
| TDERSWVYSPLHYSAQ S9L (TDERSWVYLPLHYSAQ) | 0 |
| TDERSWVYSPLHYSAQ S9M (TDERSWVYMPLHYSAQ) | 0.02329 |
| TDERSWVYSPLHYSAQ S9N (TDERSWVYNPLHYSAQ) | 0.1851 |
| TDERSWVYSPLHYSAQ S9P (TDERSWVYPPLHYSAQ) | 0.0174 |
| TDERSWVYSPLHYSAQ S9Q (TDERSWVYQPLHYSAQ) | 0.0041 |
| TDERSWVYSPLHYSAQ S9R (TDERSWVYRPLHYSAQ) | 0.0008833 |
| TDERSWVYSPLHYSAQ S9S | 0.626 |
| TDERSWVYSPLHYSAQ S9T (TDERSWVYTPLHYSAQ) | 0.04707 |
| TDERSWVYSPLHYSAQ S9V (TDERSWVYVPLHYSAQ) | 0.002911 |
| TDERSWVYSPLHYSAQ S9W (TDERSWVYWPLHYSAQ) | 0 |
| TDERSWVYSPLHYSAQ S9Y (TDERSWVYYPLHYSAQ) | 0.004881 |

| Sequence | DMS-derived PSSM value of the single-substitution variant |
| --- | --- |
| TDERSWVYSPLHYSAQ S14A (TDERSWVYSPLHYAAQ) | 0.02095 |
| TDERSWVYSPLHYSAQ S14D (TDERSWVYSPLHYDAQ) | 0.09191 |
| TDERSWVYSPLHYSAQ S14E (TDERSWVYSPLHYEAQ) | 0.004715 |
| TDERSWVYSPLHYSAQ S14F (TDERSWVYSPLHYFAQ) | 0.03519 |
| TDERSWVYSPLHYSAQ S14G (TDERSWVYSPLHYGAQ) | 0.01063 |
| TDERSWVYSPLHYSAQ S14H (TDERSWVYSPLHYHAQ) | 0.05425 |
| TDERSWVYSPLHYSAQ S14I (TDERSWVYSPLHYIAQ) | 0.002934 |
| TDERSWVYSPLHYSAQ S14K (TDERSWVYSPLHYKAQ) | 0.01183 |
| TDERSWVYSPLHYSAQ S14L (TDERSWVYSPLHYLAQ) | 0.01761 |
| TDERSWVYSPLHYSAQ S14M (TDERSWVYSPLHYMAQ) | 0.0475 |
| TDERSWVYSPLHYSAQ S14N (TDERSWVYSPLHYNAQ) | 0.02523 |
| TDERSWVYSPLHYSAQ S14P (TDERSWVYSPLHYPAQ) | 0.005566 |
| TDERSWVYSPLHYSAQ S14Q (TDERSWVYSPLHYQAQ) | 0.01646 |
| TDERSWVYSPLHYSAQ S14R (TDERSWVYSPLHYRAQ) | 0.003044 |
| TDERSWVYSPLHYSAQ S14S | 0.103 |
| TDERSWVYSPLHYSAQ S14T (TDERSWVYSPLHYTAQ) | 0.1659 |
| TDERSWVYSPLHYSAQ S14V (TDERSWVYSPLHYVAQ) | 0.2377 |
| TDERSWVYSPLHYSAQ S14W (TDERSWVYSPLHYWAQ) | 0.1224 |
| TDERSWVYSPLHYSAQ S14Y (TDERSWVYSPLHYYAQ) | 0.02333 |
| TDERSWVYSPLHYSAQ T1A (ADERSWVYSPLHYSAQ) | 0.09419 |
| TDERSWVYSPLHYSAQ T1D (DDERSWVYSPLHYSAQ) | 0.05547 |
| TDERSWVYSPLHYSAQ T1E (EDERSWVYSPLHYSAQ) | 0.1316 |
| TDERSWVYSPLHYSAQ T1F (FDERSWVYSPLHYSAQ) | 0.04961 |
| TDERSWVYSPLHYSAQ T1G (GDERSWVYSPLHYSAQ) | 0.07139 |

| Sequence | DMS-derived PSSM value of the single-substitution variant |
| --- | --- |
| TDERSWVYSPLHYSAQ T1H (HDERSWVYSPLHYSAQ) | 0.02118 |
| TDERSWVYSPLHYSAQ T1I (IDERSWVYSPLHYSAQ) | 0.02349 |
| TDERSWVYSPLHYSAQ T1K (KDERSWVYSPLHYSAQ) | 0.0276 |
| TDERSWVYSPLHYSAQ T1L (LDERSWVYSPLHYSAQ) | 0.01584 |
| TDERSWVYSPLHYSAQ T1M (MDERSWVYSPLHYSAQ) | 0.009054 |
| TDERSWVYSPLHYSAQ T1N (NDERSWVYSPLHYSAQ) | 0.005806 |
| TDERSWVYSPLHYSAQ T1P (PDERSWVYSPLHYSAQ) | 0.03125 |
| TDERSWVYSPLHYSAQ T1Q (QDERSWVYSPLHYSAQ) | 0.0308 |
| TDERSWVYSPLHYSAQ T1R (RDERSWVYSPLHYSAQ) | 0.08446 |
| TDERSWVYSPLHYSAQ T1S (SDERSWVYSPLHYSAQ) | 0.07038 |
| TDERSWVYSPLHYSAQ T1T | 0.2049 |
| TDERSWVYSPLHYSAQ T1V (VDERSWVYSPLHYSAQ) | 0.02903 |
| TDERSWVYSPLHYSAQ T1W (WDERSWVYSPLHYSAQ) | 0.03019 |
| TDERSWVYSPLHYSAQ T1Y (YDERSWVYSPLHYSAQ) | 0.01376 |
| TDERSWVYSPLHYSAQ V7A (TDERSWAYSPLHYSAQ) | 0.3675 |
| TDERSWVYSPLHYSAQ V7D (TDERSWDYSPLHYSAQ) | 0.004676 |
| TDERSWVYSPLHYSAQ V7E (TDERSWEYSPLHYSAQ) | 0.02073 |
| TDERSWVYSPLHYSAQ V7F (TDERSWFYSPLHYSAQ) | 0.006179 |
| TDERSWVYSPLHYSAQ V7G (TDERSWGYSPLHYSAQ) | 0.006634 |
| TDERSWVYSPLHYSAQ V7H (TDERSWHYSPLHYSAQ) | 0.005577 |
| TDERSWVYSPLHYSAQ V7I (TDERSWIYSPLHYSAQ) | 0.005489 |
| TDERSWVYSPLHYSAQ V7K (TDERSWKYSPLHYSAQ) | 0.03056 |
| TDERSWVYSPLHYSAQ V7L (TDERSWLYSPLHYSAQ) | 0.04475 |
| TDERSWVYSPLHYSAQ V7M (TDERSWMYSPLHYSAQ) | 0.01699 |

| Sequence | DMS-derived PSSM value of the single-substitution variant |
| --- | --- |
| TDERSWVYSPLHYSAQ V7N (TDERSWNYSPLHYSAQ) | 0.1374 |
| TDERSWVYSPLHYSAQ V7P (TDERSWPYSPLHYSAQ) | 0.0002617 |
| TDERSWVYSPLHYSAQ V7Q (TDERSWQYSPLHYSAQ) | 0.01298 |
| TDERSWVYSPLHYSAQ V7R (TDERSWRYSPLHYSAQ) | 0.04163 |
| TDERSWVYSPLHYSAQ V7S (TDERSWSYSPLHYSAQ) | 0.01209 |
| TDERSWVYSPLHYSAQ V7T (TDERSWTYSPLHYSAQ) | 0.1107 |
| TDERSWVYSPLHYSAQ V7V | 0.07907 |
| TDERSWVYSPLHYSAQ V7W (TDERSWWYSPLHYSAQ) | 0.02806 |
| TDERSWVYSPLHYSAQ V7Y (TDERSWYYSPLHYSAQ) | 0.06871 |
| TDERSWVYSPLHYSAQ W6A (TDERSAVYSPLHYSAQ) | 0.002875 |
| TDERSWVYSPLHYSAQ W6D (TDERSDVYSPLHYSAQ) | 0 |
| TDERSWVYSPLHYSAQ W6E (TDERSEVYSPLHYSAQ) | 0.004443 |
| TDERSWVYSPLHYSAQ W6F (TDERSFVYSPLHYSAQ) | 0.03325 |
| TDERSWVYSPLHYSAQ W6G (TDERSGVYSPLHYSAQ) | 0.003987 |
| TDERSWVYSPLHYSAQ W6H (TDERSHVYSPLHYSAQ) | 0 |
| TDERSWVYSPLHYSAQ W6I (TDERSIVYSPLHYSAQ) | 0.01452 |
| TDERSWVYSPLHYSAQ W6K (TDERSKVYSPLHYSAQ) | 0.006269 |
| TDERSWVYSPLHYSAQ W6L (TDERSLVYSPLHYSAQ) | 0.002846 |
| TDERSWVYSPLHYSAQ W6M (TDERSMVYSPLHYSAQ) | 0 |
| TDERSWVYSPLHYSAQ W6N (TDERSNVYSPLHYSAQ) | 0.01276 |
| TDERSWVYSPLHYSAQ W6P (TDERSPVYSPLHYSAQ) | 0.01862 |
| TDERSWVYSPLHYSAQ W6Q (TDERSQVYSPLHYSAQ) | 0 |
